This is a selection; strong and weak results do not stand in their true shares. Calls of active or inactive are those of the source. Rule as the data show it: active = inhibition above about 31%; inactive = the rest.
Assay: yeast transport mutant growth inhibition pilot in 384-well plates, post-Golgi transport modulator project (AID 636)
Settings: absorbance 615 nm, about 18 h, active compounds read high

Structure (SMILES)	inhibition
O=P(Nc1nccs1)(c1ccccc1)c1ccccc1	inactive: -5%
O=C(COc1ccccc1)OC1CN2CCC1CC2 (stereo not given)	inactive: 1.58%
COP1(=S)c2c(C)nn(CCC#N)c2N=C(c2ccc(F)cc2)N1C (stereo not given)	inactive: -4.29%
CCOP1(=S)c2c(C)nn(CCC#N)c2N=C(c2ccccc2F)N1C (stereo not given)	inactive: 0.13%
Cc1nn(-c2ccccc2)c2c1P(=O)(N1CCOCC1)N(C)C(c1ccccc1)=N2 (stereo not given)	inactive: 2.6%

Reference: PubChem BioAssay AID636 (SRMLSC, 2007)
